In patent US5120641A (Daiichi Pure Chemicals Co., Ltd., priority 1989, dated 1992):
Read-outs that look alike come from different tables or passages of the source.

Chains of the proteins cited; added tags and fusions are not shown.
UniProt P31652, whole entry: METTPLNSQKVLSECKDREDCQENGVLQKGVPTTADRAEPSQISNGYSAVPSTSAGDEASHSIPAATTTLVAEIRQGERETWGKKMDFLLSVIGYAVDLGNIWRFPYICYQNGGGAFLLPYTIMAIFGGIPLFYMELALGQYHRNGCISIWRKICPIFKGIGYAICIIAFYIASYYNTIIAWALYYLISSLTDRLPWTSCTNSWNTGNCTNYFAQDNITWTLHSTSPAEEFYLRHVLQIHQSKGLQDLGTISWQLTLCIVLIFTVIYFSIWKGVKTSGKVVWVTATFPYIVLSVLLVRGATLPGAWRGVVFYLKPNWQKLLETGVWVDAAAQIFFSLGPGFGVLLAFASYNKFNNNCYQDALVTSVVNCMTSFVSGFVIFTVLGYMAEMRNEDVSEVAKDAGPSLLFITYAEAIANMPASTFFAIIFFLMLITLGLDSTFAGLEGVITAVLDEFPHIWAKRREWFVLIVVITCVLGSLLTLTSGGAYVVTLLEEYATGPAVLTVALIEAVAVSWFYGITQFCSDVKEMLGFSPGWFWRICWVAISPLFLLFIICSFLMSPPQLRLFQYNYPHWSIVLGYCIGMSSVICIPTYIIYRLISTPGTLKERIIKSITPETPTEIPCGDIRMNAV

Molecular target: T1, serotonin uptake sites ([^3 H]6-nitroquipazine binding, rat brain membranes) (Rattus norvegicus, UniProt P31652)
T1 construct: from tissue; host or cells: rat brain minus cerebellum, pons and medulla oblongata; washed membrane homogenate
Test: Inhibition of [^3 H]6-nitroquipazine binding by several drugs
Procedure: Rats were killed by decapitation and the brains (minus cerebellum, pons medulla and oblongata) were rapidly removed. The brain tissue was homogenized in 50 volumes of ice-cold buffer (50 mM Tris-HCl, 120 mM NaCl, 5 mM KCl, pH 7.4) with a Kinematica Polytron homogenizer at setting 5 for 30 seconds. The homogenate was centrifuged at 48,000×g for 10 minutes. The resulting pellet was resuspended in 50 volumes of ice-cold buffer and recentrifuged. The final pellet was resuspended in the same 50 volumes of buffer.
Aliquots of membrane suspension were incubated with [^3 H]6-nitroquipazine (30-1,200 pM) at 22° C. for 2 hours for the equilibrium saturation. After the addition of 4 ml of ice-cold buffer the homogenates were rapidly filtered through Whatman GF/C filters pretreated with 0.05% polyethleneimine. The filters were washed with ice-cold buffer (3×5 ml). The radioactivity trapped by the filters was determined by a liquid scintillation counter.
Ten different concentrations of the drugs were used for each determination. Aliquots of membrane suspension were incubated with [^3 H]6-nitroquipazine at 22° C. for 2 hours. The specific binding of [^3 H]6-nitroquipazine was determined as described in Example 2.
Drug IC50 values were defined by means of the iterative non-linear least-squares method.

Structure (SMILES) | Ki (read-out: Ki) [nM] | Ki ([…] [^3 H]6-nitroquipazine, 22° C., 2 hours)
CNCCC=C1c2ccccc2CCc2ccccc21 [Nortriptyline] | 89.5 | 
Fc1ccc([C@@H]2CCNC[C@H]2COc2ccc3c(c2)OCO3)cc1 [Paroxetine] | 0.171 | low nanomolar ranges
